Reference: patent US20060251751A1, “Sophoridine and its use as an analgesic” (SHANGHAI FANGDA PHARMACEUTICALS, LTD., priority 2001, published 2006)

System: mice
Experiment: Effect of the opioid receptor antagonist naloxone on morphine- and sophoridine-induced analgesia
[1] = morphine hydrochloride alone 10 mg/kg i.v.

SMILES | Pain thresholds after admin. (seconds) 30 min. (morphine hydrochloride alone 10 mg/kg i.v., 30 min.) | Pain thresholds after admin. (seconds) 60 min. [1] | Pain thresholds after admin. (seconds) 90 min. [1] | Pain thresholds before admin. (morphine hydrochloride alone 10 mg/kg i.v., before admin. (baseline)) | naloxone counteracting the analgesic effect (in words) (naloxone 2.0 mg/kg, morphine 10 mg/kg or sophoridine 20 mg/kg) | Pain thresholds after admin. (seconds) 15 min. (naloxone alone 2 mg/kg i.v., 15 min.) | Pain thresholds after admin. (seconds) 60 min. (naloxone alone 2 mg/kg i.v.) | Pain thresholds after admin. (seconds) 90 min. (naloxone alone 2 mg/kg i.v.)
CN1CC[C@]23c4c5ccc(O)c4O[C@H]2[C@@H](O)C=C[C@H]3[C@H]1C5.Cl [Morphine, morphine hydrochloride] | 43.5 ± 12.5 s | 31.6 ± 15.8 s | 26.3 ± 15.5 s | 19.8 ± 4.0 s | effective in counteracting the analgesic effect | – | – | –
C=CCN1CC[C@]23c4c5ccc(O)c4O[C@H]2C(=O)CC[C@@]3(O)[C@H]1C5 [Naloxone, naloxone] | – | – | – | – | – | 17.4 ± 7.7 s | 19.0 ± 8.7 s | 18.1 ± 4.0 s
